Measured values taken from patent US11633400B2.

What was measured:
[1] = Hygroscopicity by dynamic water vapor sorption analysis (DVS); conditions: for additional water absorbed when relative humidity is increased from 50% to 95%: 50% to 95% relative humidity
[2] = Procedure: The mixture was vigorously agitated at room temperature for one minute. […] The suspension was filtered by centrifugal filtration and 1.50 mL of the aqueous solution was transferred into a tared glass vial (about 10 mL volume). […] The solubility was determined by gravimetric evaluation of the solid residue.

| SMILES | additional water absorbed when relative humidity is increased from 50% to 95% [1] | water content at 50% relative humidity ([1]; 50% relative humidity) | kinetic solubility, amount of salt readily dissolved ([2]; room temperature, clear solution after a few seconds, expressed as salt) | kinetic solubility improved by a factor versus the known (metastable Form I) calcium salt ([2]; versus metastable Form I of the calcium salt) |
| --- | --- | --- | --- | --- |
| CN1c2c([nH]c(N)nc2=O)NC[C@@H]1CNc1ccc(C(=O)N[C@@H](CCC(=O)[O-])C(=O)[O-])cc1.[Ca+2] [reference compound] | more than 10% |  |  |  |
| CN1c2c(nc(N)[nH]c2=O)NC[C@@H]1CNc1ccc(C(=O)N[C@@H](CCC(=O)O)C(=O)O)cc1.OCCN1CCOCC1 | about 2% | about 10% | more than 54 mg per mL water | about three |
